Experimental findings from ChEMBL document CHEMBL1129605, “Synthesis, structure-activity relationships, and molecular modeling studies of N-(indol-3-ylglyoxylyl)benzylamine derivatives acting at the benzodiazepine receptor” (J Med Chem, 1996) are described below.

The chains behind the UniProt entries cited, without tags or fusion partners. Where a name states a change or a piece, a line headed by the entry shows the natural chain unless it says otherwise.
UniProt P10063: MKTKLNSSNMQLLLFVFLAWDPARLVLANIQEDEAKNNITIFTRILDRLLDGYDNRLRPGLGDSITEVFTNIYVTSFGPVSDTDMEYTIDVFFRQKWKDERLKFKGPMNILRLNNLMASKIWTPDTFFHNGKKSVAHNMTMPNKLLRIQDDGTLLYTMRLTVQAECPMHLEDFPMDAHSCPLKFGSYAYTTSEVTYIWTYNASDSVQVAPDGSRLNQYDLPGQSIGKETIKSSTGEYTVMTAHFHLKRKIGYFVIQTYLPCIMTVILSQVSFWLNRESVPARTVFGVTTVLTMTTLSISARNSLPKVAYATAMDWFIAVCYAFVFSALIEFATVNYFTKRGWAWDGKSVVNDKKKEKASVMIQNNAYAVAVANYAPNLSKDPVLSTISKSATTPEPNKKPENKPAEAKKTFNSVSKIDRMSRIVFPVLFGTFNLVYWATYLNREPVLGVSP
UniProt P08220: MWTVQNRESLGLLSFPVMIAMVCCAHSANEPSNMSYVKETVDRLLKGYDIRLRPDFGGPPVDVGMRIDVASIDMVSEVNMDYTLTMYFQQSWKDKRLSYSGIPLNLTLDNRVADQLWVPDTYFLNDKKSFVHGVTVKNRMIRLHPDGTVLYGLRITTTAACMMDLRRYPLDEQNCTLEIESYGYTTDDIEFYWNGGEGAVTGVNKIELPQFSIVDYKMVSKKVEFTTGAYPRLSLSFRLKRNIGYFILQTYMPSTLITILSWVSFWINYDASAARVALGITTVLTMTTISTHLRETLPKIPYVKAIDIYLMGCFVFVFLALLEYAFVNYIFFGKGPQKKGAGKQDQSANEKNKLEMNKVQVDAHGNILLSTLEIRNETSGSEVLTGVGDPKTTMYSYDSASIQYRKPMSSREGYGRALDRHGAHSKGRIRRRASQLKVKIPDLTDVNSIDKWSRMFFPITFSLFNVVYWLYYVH
UniProt P20237: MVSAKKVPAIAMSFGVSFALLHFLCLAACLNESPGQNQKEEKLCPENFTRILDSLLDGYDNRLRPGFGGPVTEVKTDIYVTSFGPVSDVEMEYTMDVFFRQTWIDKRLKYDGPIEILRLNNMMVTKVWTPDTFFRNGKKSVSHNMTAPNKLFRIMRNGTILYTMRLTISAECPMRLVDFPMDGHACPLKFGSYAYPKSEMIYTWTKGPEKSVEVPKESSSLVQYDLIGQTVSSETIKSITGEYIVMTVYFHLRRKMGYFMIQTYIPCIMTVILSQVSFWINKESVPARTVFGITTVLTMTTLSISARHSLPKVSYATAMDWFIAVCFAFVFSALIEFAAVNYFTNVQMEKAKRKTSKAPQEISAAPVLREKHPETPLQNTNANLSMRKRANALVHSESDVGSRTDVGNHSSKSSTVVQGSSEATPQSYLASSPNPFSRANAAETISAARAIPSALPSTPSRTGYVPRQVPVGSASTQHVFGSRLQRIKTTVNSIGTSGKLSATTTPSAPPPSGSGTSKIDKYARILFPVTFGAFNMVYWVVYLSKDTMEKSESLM
UniProt P08219: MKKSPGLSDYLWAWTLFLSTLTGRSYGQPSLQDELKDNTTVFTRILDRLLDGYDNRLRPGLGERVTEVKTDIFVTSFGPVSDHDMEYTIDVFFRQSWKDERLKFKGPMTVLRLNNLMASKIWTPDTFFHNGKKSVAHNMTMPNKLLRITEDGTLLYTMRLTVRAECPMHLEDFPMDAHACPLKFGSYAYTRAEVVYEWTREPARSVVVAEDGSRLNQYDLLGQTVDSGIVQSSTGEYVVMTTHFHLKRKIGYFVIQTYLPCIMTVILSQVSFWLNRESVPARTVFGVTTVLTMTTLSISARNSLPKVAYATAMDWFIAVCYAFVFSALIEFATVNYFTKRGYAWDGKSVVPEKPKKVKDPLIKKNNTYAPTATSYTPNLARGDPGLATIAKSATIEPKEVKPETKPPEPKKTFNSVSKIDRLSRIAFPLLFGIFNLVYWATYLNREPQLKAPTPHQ
UniProt P10064: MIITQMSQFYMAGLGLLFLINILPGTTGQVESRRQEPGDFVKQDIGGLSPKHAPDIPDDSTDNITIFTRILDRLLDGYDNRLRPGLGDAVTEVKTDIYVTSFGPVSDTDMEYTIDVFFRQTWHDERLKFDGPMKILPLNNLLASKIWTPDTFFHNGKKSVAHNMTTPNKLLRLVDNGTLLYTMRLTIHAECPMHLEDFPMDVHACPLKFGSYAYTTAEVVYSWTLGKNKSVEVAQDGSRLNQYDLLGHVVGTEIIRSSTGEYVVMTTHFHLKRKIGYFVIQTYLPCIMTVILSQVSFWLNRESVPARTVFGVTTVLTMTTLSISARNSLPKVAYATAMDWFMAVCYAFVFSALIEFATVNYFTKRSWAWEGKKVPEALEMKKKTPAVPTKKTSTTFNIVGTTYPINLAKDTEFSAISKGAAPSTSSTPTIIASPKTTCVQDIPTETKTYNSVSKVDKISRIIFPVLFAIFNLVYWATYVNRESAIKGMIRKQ
UniProt P22300: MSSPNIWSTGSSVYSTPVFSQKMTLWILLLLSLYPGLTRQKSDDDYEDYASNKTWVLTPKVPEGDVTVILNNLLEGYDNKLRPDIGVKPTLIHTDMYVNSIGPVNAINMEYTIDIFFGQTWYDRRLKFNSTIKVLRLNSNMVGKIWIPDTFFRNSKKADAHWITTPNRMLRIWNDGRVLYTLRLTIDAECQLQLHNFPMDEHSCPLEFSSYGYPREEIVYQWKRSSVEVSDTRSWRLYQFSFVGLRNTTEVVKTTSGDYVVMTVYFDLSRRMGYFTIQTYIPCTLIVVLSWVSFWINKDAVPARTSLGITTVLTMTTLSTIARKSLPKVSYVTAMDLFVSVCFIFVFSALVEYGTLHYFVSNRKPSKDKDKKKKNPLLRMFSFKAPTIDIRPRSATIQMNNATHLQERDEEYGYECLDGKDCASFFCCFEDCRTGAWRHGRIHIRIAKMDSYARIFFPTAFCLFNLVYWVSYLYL

In the assay the target is GABA-A receptor; anion channel (Bos taurus) (UniProt P10063+P08220+P20237+P08219+P10064+P22300). The experiment in a line: Relative binding to GABA-A receptor in the presence and absence of GABA (GABA shift), Ki(-GABA)/Ki(+GABA). In kind it is protein-complex assay.

Regarding `O=C1CN=C(c2ccccc2Cl)c2cc([N+](=O)[O-])ccc2N1`, the GABA ratio stood at 1.97.
